According to patent publication US4072760A, “Bronchospasmolytic phenylethanolamines” (Pharmacia AS, priority 1974, dated 1978):

Tests used:
[1] = test system: β2 -stimulation versus β1 -stimulation; assay: Bronchial selectivity: heart rate increasing dose ("ED 100") divided by bronchospasmolytic dose (ED 50); assay type: in vivo; conditions: heart rate ED 100 (mice, i.v.) / bronchospasmolytic ED 50 (guinea pig, i.v.)
Procedure: The ratio, heart rate increasing dose ("ED 100") divided by bronchospasmolytic dose (ED 50), is a measure of the degree of selectivity of the bronchospasmolytic action. This ratio was calculated for a number of the compounds of the invention and for some of the most relevant compounds of reference.

in vivo = conditions: mouse

CC(C)NCC(O)c1ccc(O)c(O)c1 (stereo not drawn) [Isoprenaline, reference compound]
Ratio "ED 100"/ED 50 [1]: 0.06 | LD50 (in vivo; iv): 70 mg/kg | LD50 (in vivo; po): > 2000 mg/kg
